# PglD inh: PglD (C. jejuni) enzyme inhibition; inhibition, % at 12.5 µM; purified PglD enzyme, DTNB colorimetric CoA detection; hit rate 0.098% among 360,000; AID 602405; in the data active means inhibition above about 16%, passing the limit was not always enough
# INS-1E GSIS act: primary screen for activators of insulin secretion dependent on glucose, INS-1E cells, GLuc reporter luminescence. activation, % at 16.6 µM. AID 743287. INS-1E GLuc reporter insulin secretion, 2-3 h. hit rate 0.61% among 370,000;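 active means lowest replicate activation of at least 40%, so every replicate reaches that level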;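 further: 0% = median of neutral control wells and 100% = median of IBMX positive control wells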
# RAD54 branch: blocks human RAD54 Holliday junction branch migration. AID 602329. Q92698. inhibition, % at 10.4 µM. FAM/BHQ fluorescence. hit rate 0.14% among 360,000;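 active means mean normalized replicate activity at least 40 and at least half of replicates scoring 40 or more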;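 further: 0% = median of neutral control wells and 100% = median of positive control wells; inhibitors cause a drop in the FAM fluorescence signal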
# RAD52 anneal inh: RAD52 (human) annealing inhibition. P43351. recombinant RAD52 DNA annealing, FRET fluorescence. inhibition, % at 18.7 µM. hit rate 0.46% among 360,000. AID 651710;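 active means every replicate showing at least 50% inhibition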
# Yeast UUG start: alters start codon recognition fidelity in yeast. S. cerevisiae UUG-firefly luciferase reporter, luminescence/redox ratio. AID 602363. activity score, % at 18.7 µM. hit rate 0.13% among 350,000;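 active = replicate mean at a twofold rise or more, about +100% in these data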;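 note: firefly luciferase made from a UUG start codon reports start codon fidelity; reporter light over untreated wells divided by growth signal over untreated wells; some hits fall short of that in this replicate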
# CASP6 VEID inh: inhibitors of human caspase-6; P55212; purified caspase-6, Z-VEID-R110 cleavage fluorescence; inhibition, % at 12.5 µM; hit rate 0.53% among 350,000; AID 686996;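 active means mean inhibition across replicates at least about 35%, with every replicate also reaching that limit, limit read from the data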;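 further: 0% = median of neutral control wells and 100% = no fluorescence left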
# CASP1 counter: blocks human caspase-1 in a selectivity counter-screen | shares compounds with CASP6 VEID inh | purified caspase-1, Z-YVAD-R110 cleavage fluorescence | activity change, negative = inhibition, % at 35 µM | 100 tested, under 10 active | AID 743289;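 active means compounds lowering fluorescence whose fitted half-maximal concentration is no more than twice their top tested dose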
# Starred values were filed as active, the others as inactive; · = not tested or not shown. Shown are actives, neighbours in structure and some others; about 1.5% of the full set was active somewhere.
# Values run as follows: PglD inh, INS-1E GSIS act, RAD54 branch, RAD52 anneal inh, Yeast UUG start, CASP6 VEID inh, CASP1 counter
> COc1ccc(C(=O)Nc2ccc(S(=O)(=O)Nc3cnc4ccccc4n3)cc2)cc1
  0, 18, -3, -9, -1, 2, ·
> Oc1cc2c(cc1O)[C@H]1c3ccc(O)c(O)c3OC[C@@]1(O)C2
  -2, 2, 9, -14, 4, 37*, -2
> CO[C@@H]1CN(C)C(=O)c2cc(NC(C)=O)ccc2OC[C@H](C)N(C(=O)CC2CC2)C[C@H]1C
  3, 0, -5, -3, -10, -2, ·
> CO[C@H]1CN(C)C(=O)c2cc(NC(C)=O)ccc2OC[C@@H](C)N(C(=O)CC2CC2)C[C@H]1C
  0, -6, -20, 20, 26, 56*, -8
> COc1ccc2c3c([nH]c2c1)[C@@H](CO)N(C(=O)NC(C)C)CC31CN(Cc2ccc(F)cc2)C1
  ·, 1, ·, ·, ·, ·, ·
> O=P(c1ccccc1)(c1ccccc1)c1cc(S(=O)(=O)O)ccc1O
  0, 2, -28, -12, -9, 77*, 5

# Quoted at random: 2 records from the list, in no set order.
# Values run as follows: PglD inh, INS-1E GSIS act, RAD54 branch, RAD52 anneal inh, Yeast UUG start, CASP6 VEID inh, CASP1 counter
> COc1ccc(C(=O)Nc2ccc(S(=O)(=O)Nc3cnc4ccccc4n3)cc2)cc1
  0, 18, -3, -9, -1, 2, ·
> CO[C@@H]1CN(C)C(=O)c2cc(NC(C)=O)ccc2OC[C@H](C)N(C(=O)CC2CC2)C[C@H]1C
  3, 0, -5, -3, -10, -2, ·

# High-throughput results: PubChem BioAssay, Broad Institute
